Where no end group is shown, it is not given here.
Key:
[1] = system: PFV IN; type: binding, prototype foamy virus (PFV); conditions: DSF, absence of salt (20 mM HEPES, pH 7.5)
Excerpt: (§1) Differential scanning fluorimetry (DSF)

[2] = system: TEV Protease; type: binding, tobacco etch virus (TEV); conditions: DSF, absence of salt (20 mM HEPES, pH 7.5)
Excerpt: as §1

## hBD-1: human β-defensin hBD-1, prepared by solid-phase peptide synthesis (DHYNCVSSGGQCLYSACPIFTKIQGTCYRGKAKCCK; ends and bridges not checked; cysteine pairing not given here; UniProt P60022 33-68, looked up)
[1]
  Effect on melting profile of PFV IN, no salt: no significant changes in melting profiles
[2]
  Effect on melting profile of TEV protease, no salt: no significant changes in melting profiles

From paper PMC5007486, “Thermodynamic instability of viral proteins is a pathogen-associated molecular pattern targeted by human defensins” (Scientific Reports, 2016)
